# Compounds with a hit are over-represented: about 16% of the library has one in this group of screens.
# uPA surface inh = blocks generation of uPA at the cell surface. hit rate 0.31% among 330,000. Potency, µM (titrated, usually from 38.3 µM), for inactives: at the highest dose activity change, negative = inhibition, hits mostly inhibitors. AID 540303. cell surface uPA generation assay, qHTS; active means well fitted inhibition curve with a large enough effect; inconclusive means small, poorly fitted or top-dose-only effect; inactive means no such curve, though single readings can be large or run the other way; tested in mouse RAW 264.7 cells; further: potency means the concentration at half of the fitted maximal effect; on the % scale 0 is the no-effect control and ±100 the full control effect; nearly all actives have a fitted effect of over 55% in size
# TDP1 cell noCPT = qHTS for Inhibitors of human tyrosyl-DNA phosphodiesterase 1 (TDP1): qHTS in cells in absence of CPT | AID 686978, 2013 | Potency, µM (highest dose often 46.2 µM), without a hit: at the top dose activity change, negative = growth inhibition, actives largely listed as inhibitors | DT40 Tdp1-/- hTDP1 cells, no CPT, ATP luminescence, 48 h | hit rate 15% among 420,000; further: potency means the concentration at half of the fitted maximal effect; on the % scale 0 is the no-effect control and ±100 the full control effect; nearly all actives have a fitted effect of over 55% in size
#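 Cells were dispensed at 400 per well, compounds added by pin tool, plates incubated ≥48 hr at 37 °C, then CellTiter-Glo added for 30 min at room temperature before luminescence reading. Line: DT40 Tdp1-/- complemented with hTDP1; camptothecin omitted.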
# miR-21 FLuc = miR-21 reporter, rising signal | HeLa miR-21 FLuc reporter, luciferase, 48 h | Potency, µM (highest dose often 38.3 µM), for inactives: at the top dose reporter change, positive = more light | 340,000 tested, under 10 active | AID 2288; active = well fitted rising curve with a large enough effect; inconclusive = small, poorly fitted or top-dose-only effect; inactive = no such curve, though single readings can be large or run the other way;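 further: % of control where 0% means no effect; miR-21 action dims this reporter so a rising signal means less miR-21 action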
#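 Luminescence from a firefly luciferase reporter carrying a miR-21 binding site downstream, stably expressed under a CMV promoter in HeLa cells that make miR-21 endogenously, reports miRNA modulation after 48 h compound exposure up to approximately 40uM final.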
# DT40 TDP1 CPT = growth inhibition of DT40 Tdp1-/-;hTDP1 cells with camptothecin (screen for TDP1 inhibitors); chicken DT40 Tdp1-/-;hTDP1 cells + 20 nM CPT, ATP luminescence, 48 h; Potency, µM (series often up to 46.2 µM), without a hit: top-dose activity change, negative = growth inhibition, most hits filed as inhibitors; hit rate 12% among 420,000; AID 686979; further: potency means the concentration at half of the fitted maximal effect; on the % scale 0 is the no-effect control and ±100 the full control effect; nearly all actives have a fitted effect of over 55% in size
#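 Chicken DT40 Tdp1-/- cells complemented with human TDP1, 400 cells/well, exposed to compounds plus 20 nM camptothecin for at least 48 h at 37 C; viability read as ATP content by CellTiter-Glo luminescence.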
# TDP1 block = blocks human tyrosyl-DNA phosphodiesterase 1; Q9NUW8; Potency, µM (top dose mostly 130 µM), for inactives: at the top dose activity change, negative = inhibition, hits mostly inhibitors; hit rate 0.28% among 350,000; AID 485290; recombinant TDP1, AlphaScreen DNA substrate cleavage; further: potency means the concentration at half of the fitted maximal effect; on the % scale 0 is the no-effect control and ±100 the full control effect; nearly all actives have a fitted effect of over 40% in size
#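 E. coli-derived human Tdp1, 1 nM final. Cpd preinc 15 min RT; substrate 15 nM final, 5 min RT; AS bead mix 10 ug/ml final, 10 min RT. Signal loss = tyrosine-FITC cleavage. No-enzyme wells = max signal.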
# * marks the source's active call; other numbers are inactive results; ? = inconclusive; · = not tested or not shown. Unless noted, the call rests on the fitted dose curve; in most records, active means well fitted curve in the direction sought with a large enough effect; inconclusive means small, poorly fitted or top-dose-only effect, or another doubt; inactive means no such curve, though single readings can be large; an effect the other way counts as inactive or inconclusive.
No.	Compound	uPA surface inh	TDP1 cell noCPT	miR-21 FLuc
1	Cc1ccc(S(=O)(=O)N2CCC3(CC2)OCCN3S(=O)(=O)c2c(C)cc(C)cc2C)cc1	-1%	16µM*	·
2	Cc1cc(C)c(S(=O)(=O)N2CCC3(CC2)OCCN3S(=O)(=O)c2cccs2)c(C)c1	-7%	23µM*	·
3	COc1ccc(S(=O)(=O)N2CCOC23CCN(S(=O)(=O)c2ccccc2)CC3)cc1	-8%	?	·
4	Cc1ccc(NC(=S)N(C)Cc2cn(C)c3ccccc23)cc1	-27%	?	-7%
5	COc1ccc(NC(=S)N(CCCN2CCOCC2)Cc2ccccn2)cc1	2%	-2%	-13%
6	CCN(CC)C(=O)Cc1cn(C)c2ccccc12	18%	26%	0%
7	Cc1cccc(NC(=S)N(CCCN2CCOCC2)Cc2cn(C)c3ccccc23)c1	-5%	?	-13%
8	Cc1cccc(NC(=S)N(CCN2CCOCC2)Cc2cc3cc4c(cc3[nH]c2=O)OCO4)c1	-4%	?	-2%

No.	DT40 TDP1 CPT	TDP1 block
1	26µM*	-5%
2	?	-2%
3	?	-3%
4	16µM*	3%
5	5%	8%
6	0%	-3%
7	18µM*	3%
8	-4%	-7%

# (further entries)
No.	Compound	uPA surface inh	TDP1 cell noCPT	miR-21 FLuc
9	CCOc1ccc(NC(=S)N(CCCN2CCOCC2)Cc2cn(C)c3ccccc23)cc1	-6%	15µM*	-23%
10	COc1ccc([C@H]2CC(=O)C=C(c3cccc(C(C)C)c3)C2)cc1OC	7%	16µM*	·
11	O=C1C=C(c2ccccc2)C[C@@H](c2ccc3c(c2)OCO3)C1	3%	-25%	·
12	CC(C)c1cccc(C2=CC(=O)C[C@H](c3ccc(F)cc3)C2)c1	10%	?	·
13	O=C1C=C(c2cccc(Br)c2)C[C@@H](c2ccc3c(c2)OCO3)C1	-3%	23µM*	·
14	O=C1C=C(c2cnc3ccccc3c2)C[C@@H](c2ccc3c(c2)OCO3)C1	4%	?	·
15	COc1ccc([C@H]2CC(=O)C=C(c3cccc4c3Oc3ccccc3S4)C2)cc1OC	-13%	13µM*	·
16	NNC(=O)c1cc(-c2ccc(O)cc2)nc2ccc(Br)cc12	-3%	?	0%

No.	DT40 TDP1 CPT	TDP1 block
9	?	-1%
10	21µM*	0%
11	-15%	0%
12	?	-10%
13	?	3%
14	21µM*	5%
15	16µM*	3%
16	?	3%

# (cont.)
No.	Compound	uPA surface inh	TDP1 cell noCPT	miR-21 FLuc
17	COc1ccc([C@H]2CC(=O)C=C(c3cccc(Br)c3)C2)cc1OC	-28%	13µM*	·
18	COc1cccc(C2N=C(c3ccccc3C)NO2)c1OC (stereo not drawn)	-1%	0%	-47%
19	Cc1ccc2ncc(S(=O)(=O)c3ccccc3)c(N3CCCCC3C)c2c1 (stereo not drawn)	-15%	18µM*	?
20	CC1CCCN(c2c(S(=O)(=O)c3ccccc3)cnc3ccc(Cl)cc23)C1 (stereo not drawn)	·	-11%	-3%
21	CCOc1ccc(S(=O)(=O)NCCOC)cc1C	·	-14%	-3%
22	O=c1cnn(-c2ccccc2)c(-c2ccccc2)c1	·	18µM*	3%
23	Fc1ccc(-c2ccnn2-c2ccccc2)cc1	3%	1%	-11%
24	Fc1ccccc1CNc1ccc(Cl)cc1	-1%	-15%	-9%

No.	DT40 TDP1 CPT	TDP1 block
17	?	4%
18	3%	11%
19	23µM*	1%
20	-29%	2%
21	-4%	-5%
22	?	0%
23	-5%	·
24	-22%	-10%

# Later entries
No.	Compound	uPA surface inh	TDP1 cell noCPT	miR-21 FLuc
25	O=c1[nH]c2ccc(NCc3ccccc3OCc3ccc(Cl)cc3)cc2[nH]1	-26%	?	0%
26	Oc1ccc(NCc2ccccc2OCc2ccccc2)cc1	-10%	23µM*	?
27	COc1cccc(CNc2ccc3[nH]c(=O)[nH]c3c2)c1OCc1ccc(F)cc1	5%	?	18%
28	Oc1ccc(NCc2ccccc2OCc2ccc(Cl)cc2)cc1	·	21µM*	16%
29	COc1cccc2cc(C(N)=O)oc12	3%	7%	2%
30	COC(=O)c1ccc2nc(-c3cccc(Cl)c3)c(CC3CCCCC3)n2c1	·	-17%	·
31	COC(=O)c1ccc2nc(-c3cccc(Cl)c3)c(Cc3cccc(Cl)c3)n2c1	·	?	·
32	COC(=O)c1ccc2nc(-c3cccc(Cl)c3)c(Cc3cccc(F)c3)n2c1	·	9.2µM*	·

No.	DT40 TDP1 CPT	TDP1 block
25	23µM*	11%
26	18µM*	8%
27	-5%	·
28	29µM*	2%
29	3%	5%
30	5%	·
31	4.6µM*	·
32	16µM*	·

# The list goes on; the last 2 above are carried over.
No.	Compound	uPA surface inh	TDP1 cell noCPT	miR-21 FLuc
31	COC(=O)c1ccc2nc(-c3cccc(Cl)c3)c(Cc3cccc(Cl)c3)n2c1	·	?	·
32	COC(=O)c1ccc2nc(-c3cccc(Cl)c3)c(Cc3cccc(F)c3)n2c1	·	9.2µM*	·
33	O=C(C1CCCO1)N1CCN(C(=S)Nc2ccccc2C(F)(F)F)CC1 (stereo not drawn)	-14%	0%	1%
34	O=C(Cc1cccc(C(F)(F)F)c1)Nc1ccccc1	1%	?	4%
35	CC(C)C(N)c1csc(NC(=O)Nc2cccc(C(F)(F)F)c2)n1 (stereo not drawn)	·	15µM*	·
36	CC(C)[C@H](NC(=O)Nc1cccc(C(F)(F)F)c1)C(=O)O	5%	-1%	-8%
37	NC(CCc1ccccc1)c1csc(NC(=O)Nc2cccc(C(F)(F)F)c2)n1 (stereo not drawn)	·	21µM*	·
38	NCc1csc(NC(=O)Nc2cccc(C(F)(F)F)c2)n1	·	23µM*	·
39	CC(C)C(N)c1csc(NC(=O)Nc2ccccc2C(C)(C)C)n1 (stereo not drawn)	·	?	·
40	O=C1CSC(c2ccccc2Br)N1c1ccc(Cl)cn1 (stereo not drawn)	3%	-8%	3%

No.	DT40 TDP1 CPT	TDP1 block
31	4.6µM*	·
32	16µM*	·
33	17%	1%
34	?	-4%
35	15µM*	·
36	21%	5%
37	?	·
38	16µM*	·
39	18µM*	·
40	2%	2%

# Other results
No.	Compound	uPA surface inh	TDP1 cell noCPT	miR-21 FLuc
41	O=S1(=O)CC(N2CCN(CCO)CC2)CN1Cc1cn(Cc2cccc(C(F)(F)F)c2)nn1 (stereo not drawn)	·	-3%	·
42	COc1ccc(-c2noc(COc3ccc(Br)cc3C)n2)cc1OC	·	?	-15%
43	CCCCCN(C(=O)COC(=O)Cc1c(C)nc2ccccc2c1C)c1c(N)n(CCCC)c(=O)[nH]c1=O	18%	-26%	·
44	CC(C)C(N)c1csc(NC(=O)Nc2ccc(OC(F)(F)F)cc2)n1 (stereo not drawn)	·	23µM*	·
45	COC(=O)[C@@H](NC(=O)Nc1ccc(OC(F)(F)F)cc1)C(C)C	1%	-22%	-13%
46	COc1ccccc1-c1ccc2ncnc(Nc3ccccc3)c2c1	·	-94%	·
47	Fc1ccc(Nc2ncnc3ccc(-c4ccoc4)cc23)cc1	·	?	·
48	Cc1ccc2ncnc(Nc3cccc([N+](=O)[O-])c3)c2c1	7%	?	14%
49	CNc1ncnc2ccc(-c3ccccc3OC)cc12	·	21µM*	·
50	CS(=O)(=O)Nc1ccccc1C(=O)NC1CC2CCC1C2 (stereo not drawn)	·	-14%	-4%
51	Cc1ccccc1OCCN1C(=O)NC2(CCCc3ccccc32)C1=O (stereo not drawn)	10%	-3%	0%

No.	DT40 TDP1 CPT	TDP1 block
41	-15%	·
42	?	-11%
43	?	·
44	?	·
45	-6%	-4%
46	21µM*	·
47	15µM*	·
48	23µM*	·
49	?	·
50	2%	5%
51	11%	7%

# Part of the list above, screen by screen.
47. Fc1ccc(Nc2ncnc3ccc(-c4ccoc4)cc23)cc1
4. Cc1ccc(NC(=S)N(C)Cc2cn(C)c3ccccc23)cc1
19. Cc1ccc2ncc(S(=O)(=O)c3ccccc3)c(N3CCCCC3C)c2c1 (stereo not drawn)

assay / entry	47	4	19
uPA surface inh	·	-27%	-15%
TDP1 cell noCPT	?	?	18µM*
miR-21 FLuc	·	-7%	?
DT40 TDP1 CPT	15µM*	16µM*	23µM*
TDP1 block	·	3%	1%
